The assay concerns the target α-Glucosidase from recombinant yeast (Saccharomyces cerevisiae, UniProt P53341).

The chains behind the UniProt entries cited, without tags or fusion partners.
UniProt P53341, whole entry: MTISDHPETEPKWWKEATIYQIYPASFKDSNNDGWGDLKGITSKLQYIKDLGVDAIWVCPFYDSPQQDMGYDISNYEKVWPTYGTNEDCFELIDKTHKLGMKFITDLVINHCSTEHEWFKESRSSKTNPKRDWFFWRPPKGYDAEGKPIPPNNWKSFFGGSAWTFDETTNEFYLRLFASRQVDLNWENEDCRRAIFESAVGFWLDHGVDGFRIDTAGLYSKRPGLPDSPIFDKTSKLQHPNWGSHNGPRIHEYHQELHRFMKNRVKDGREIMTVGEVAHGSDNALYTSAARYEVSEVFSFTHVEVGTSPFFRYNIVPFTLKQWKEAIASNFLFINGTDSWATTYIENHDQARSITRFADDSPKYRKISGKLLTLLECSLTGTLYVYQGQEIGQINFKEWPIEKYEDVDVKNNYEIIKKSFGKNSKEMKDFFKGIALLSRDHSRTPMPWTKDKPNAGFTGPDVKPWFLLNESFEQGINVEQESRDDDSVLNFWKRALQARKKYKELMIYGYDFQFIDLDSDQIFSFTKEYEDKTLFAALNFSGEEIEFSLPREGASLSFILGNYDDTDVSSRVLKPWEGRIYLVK

A word on the IC50: it is the concentration that inhibits the measured activity by half.

Regarding `CC/C=C\C/C=C\C/C=C\C/C=C\C/C=C\CCCC(=O)O`, the IC50 (0.1 M phosphate buffer pH 6.9, 0.5% DMSO, 37 °C, α-PNPG, mean ± SD (n = 3)) was 480 nM. Further, the Inhibitory score (Tables 2, 3, S2, S3, method defines score as 1/IC50, but values match the regression model of b37) came to 6.70.

Source of the values: article PMC10992144, “Construction of fatty acid derivatives from rubber seed oil as α-glucosidase inhibitors based on rubber seed oil” (Bioresources and Bioprocessing, 2022).
